From PubChem
miR122 inh – miR-122 inhibition in Huh7 cells. activation (reporter increase), % at 12.5 µM. hit rate 0.3% among 340,000. Huh7 miR-122 Renilla luciferase sensor, 48 h; neutral wells = 0, positive control = 100. AID 602342;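 active = mean replicate activation score at least 90 and every replicate individually at or above 90; inconclusive = only one of the two criteria met; inactive = neither criterion met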;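 also: higher luciferase means less miR-122 activity so hits act as miR-122 inhibitors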
PglD DTNB – inhibitors of Campylobacter jejuni PglD acetyltransferase; purified PglD enzyme, DTNB colorimetric CoA detection; inhibition, % at 12.5 µM; hit rate 0.098% among 360,000; AID 602405; in the data active = inhibition above about 16%, passing the limit was not always enough; inconclusive = no clear call, values can overlap the other calls
MITF TRPM1 HTS – MITF TRPM1 promoter activation in melanoma cells. activation, % at 12.5 µM. hit rate 0.75% among 300,000. SK-MEL-5 TRPM1-promoter luciferase, 24 h; % of positive control, neutral wells = 0. AID 588334;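 active = mean activation of at least 80% with every replicate also reaching 80%; inconclusive = mean reaches 80% but some replicate falls short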;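 also: 0% = neutral control wells and 100% = parthenolide positive control wells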
UUG fidelity – alters start codon recognition fidelity in yeast | S. cerevisiae UUG-firefly luciferase reporter, luminescence/redox ratio | activity score, % at 18.7 µM | hit rate 0.13% among 350,000 | AID 602363;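 active means replicate mean at a twofold rise or more, about +100% in these data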;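 further: firefly luciferase made from a UUG start codon reports start codon fidelity; reporter light over untreated wells divided by growth signal over untreated wells; some hits fall short of that in this replicate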
Wnt bcat act – activates Wnt/beta-catenin signaling in a reporter cell assay; activation, % at 9.35 µM; activator, plate reader; hit rate 1.2% among 300,000; in the data active = activation above about 30%, passing the limit was not always enough; inconclusive = no clear call, values can overlap the other calls;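 also: 0% = neutral control wells and 100% = positive control wells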
esBAF inh – inhibitors of esBAF chromatin remodeling in mouse ES cells. hit rate 2% among 350,000. AID 602393. Bmi1-luciferase knock-in reporter, 24 h; 100% = twice the neutral-well signal. reporter increase, % at 12.5 µM; in the data active = activation above about 40%; inconclusive = no clear call, values can overlap the other calls;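 also: 0% = median of the plate's neutral control wells and 100% = double that signal; a rise in the Bmi1 reporter signal indicates esBAF inhibition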
* hit, by the source's call; ? = inconclusive; nt = not tested or not shown; [ ] = remark or other dose. Sampled rows, rich in hits. Any-hit rate of the full collection: about 2.8%.

SMILES	miR122 inh	PglD DTNB	MITF TRPM1 HTS	UUG fidelity	Wnt bcat act	esBAF inh
C[C@H](CO)N1C[C@H](C)[C@@H](CN(C)Cc2ccc(F)cc2)Oc2cc(C#CCN(C)C)ccc2S1(=O)=O	0[16.7 µM]	0	nt	-7	nt	2
COc1cccc(NC(=O)c2ccc3c(c2)CCN3S(C)(=O)=O)c1	-7	7	nt	-19	9	56*
CN1CCSc2ccc(C(=O)NCc3cccc(F)c3)cc21	41	-4	nt	-7	11	9
COc1cccc(NC(=O)c2ccc3c(c2)N(C)CCS3)c1	2	2	58	-24	50*	51*
CN1CCSc2ccc(C(=O)Nc3ccc(Cl)cc3)cc21	nt	nt	?	nt	37*	nt
Cc1noc(C)c1NC(=O)NCC[C@H]1CC[C@H](NC(=O)c2ccccc2)[C@@H](CO)O1	nt	-1	nt	-3	nt	-1
C[C@@H]1CN([C@@H](C)CO)C(=O)c2cc(NS(=O)(=O)c3ccc(Cl)cc3)ccc2O[C@@H]1CN(C)S(=O)(=O)c1cn(C)cn1	-19[16.7 µM]	4	nt	6	nt	2
CCCNC(=O)[C@@H]1[C@@H](CO)[C@@H]2Cn3c(cccc3=O)[C@@H]2N1C(=O)C1CCC1	2[16.7 µM]	-2	nt	0	nt	-2
CCCCC(=O)Nc1cc2nn(-c3ccc(OC)cc3)nc2cc1C	0	4	53	-11	0	42*
C[C@H]1CN([C@@H](C)CO)C(=O)c2cc(Br)cnc2O[C@@H]1CN(C)C(=O)C1CCCCC1	27[16.7 µM]	-1	nt	8	nt	6
CC1=C(C(=O)Nc2ccccn2)C(c2ccccc2Cl)NC(=S)N1 (stereo unspecified)	-6	-1	26	-14	22	66*
CC1=C(C(=O)Nc2ccccn2)C(c2ccc(Cl)cc2)NC(=S)N1 (stereo unspecified)	-1	-1	38	-5	2	44*
Cc1ccc(Nc2ncc3c(n2)CC(c2ccco2)CC3=O)c(C)c1 (stereo unspecified)	-16	-3	10	-4	-5	54*
CCc1ccc(Nc2ncc3c(n2)CC(C)CC3=O)cc1 (stereo unspecified)	-3	nt	107*	nt	17	nt
Cc1cccc(Nc2ncc3c(n2)CC(c2ccco2)CC3=O)c1 (stereo unspecified)	-1	0	17	-11	1	15
CCc1ccc(Nc2ncc3c(n2)CC(c2ccc(OC)cc2)CC3=O)cc1 (stereo unspecified)	-23	-10	nt	-13	nt	11
CCc1ccc(Nc2ncc3c(n2)CC(C)(C)CC3=O)cc1	nt	nt	102*	nt	57*	nt
Cc1cccc(Nc2ncc3c(n2)CC(C)CC3=O)c1 (stereo unspecified)	0	7	?	-5	nt	51*
O=C(C[C@H]1C=C[C@@H](NC(=O)C2CC2)[C@H](CO)O1)NCCCN1CCOCC1	nt	2	nt	-15	nt	-3
O=C(N[C@@H]1C=C[C@@H](CC(=O)N2CCCCC2)O[C@H]1CO)c1ccc2c(c1)OCO2	nt	-2	nt	nt	nt	-4
C=CCn1c(C)cc(-c2csc(NC(=O)C3=COCCO3)n2)c1C	-1	5	120*	-24	-14	nt
Cc1cc(C)c(-c2csc(NC(=O)C3=COCCO3)n2)cc1C	0	5	71	-14	17	nt
O=C(/C=C\c1ccccc1OC(=O)c1ccccc1F)c1cc2ccccc2o1	31	nt	23	-6	-1	49*
COc1cc(-c2cc(=O)c3c(C)cc(O)cc3o2)cc(OC)c1OC	nt	nt	2	nt	5	nt
COc1ccc(-c2cc(=O)c3c(C)cc(O)cc3o2)cc1	nt	nt	75	nt	67*	nt

Quoted at random: 2 entries already listed, in no set order.
SMILES	miR122 inh	PglD DTNB	MITF TRPM1 HTS	UUG fidelity	Wnt bcat act	esBAF inh
Cc1ccc(Nc2ncc3c(n2)CC(c2ccco2)CC3=O)c(C)c1 (stereo unspecified)	-16	-3	10	-4	-5	54*
COc1cccc(NC(=O)c2ccc3c(c2)N(C)CCS3)c1	2	2	58	-24	50*	51*

Next part
SMILES	miR122 inh	PglD DTNB	MITF TRPM1 HTS	UUG fidelity	Wnt bcat act	esBAF inh
COc1c(O)cc2oc(-c3ccc(O)cc3)cc(=O)c2c1O	-7	-2	41	-58	39*	0
CCC(=O)N1C[C@@H](C)[C@@H](OC)CN(C)C(=O)c2ccc(NC(=O)c3ccno3)cc2OC[C@@H]1C	10[16.7 µM]	-4	nt	4	nt	-3
C[C@H](CO)N1C[C@H](C)[C@@H](CN(C)Cc2ccc3c(c2)OCO3)OCCCC[C@H](C)Oc2ccc(NC(=O)Cc3ccccc3)cc2C1=O	24[16.7 µM]	2	nt	30	nt	-10
COc1ccccc1C(=O)Nc1nc(C)cc(C)n1	3	-4	nt	-13	4	nt
COc1cc(C)nc(NC(=S)N(C)C(=O)c2ccccc2)n1	-4	3	nt	24	46*	nt
CC(C)NC(=S)N1CCn2c(nc3ccccc32)C1	116*	-6	5	-21	0	2
CCNC(=S)N1CCn2c(nc3ccccc32)C1	-10	nt	-5	nt	0	7

Arranged by count of non-hydrogen atoms (rising): some entries from above
SMILES	miR122 inh	PglD DTNB	MITF TRPM1 HTS	UUG fidelity	Wnt bcat act	esBAF inh
CCc1ccc(Nc2ncc3c(n2)CC(C)(C)CC3=O)cc1	nt	nt	102*	nt	57*	nt
COc1cccc(NC(=O)c2ccc3c(c2)CCN3S(C)(=O)=O)c1	-7	7	nt	-19	9	56*
O=C(C[C@H]1C=C[C@@H](NC(=O)C2CC2)[C@H](CO)O1)NCCCN1CCOCC1	nt	2	nt	-15	nt	-3
